Test results taken from paper PMC8163216, “Macrocycle synthesis strategy based on step-wise “adding and reacting” three components enables screening of large combinatorial libraries” (Chemical Science, 2020).

Target: human thrombin (Homo sapiens, UniProt P00734)
Experiment: Determination of the inhibitory constants of purified macrocycles (thrombin, fluorogenic substrate Z-Gly-Gly-Arg-AMC)
Details: for Ki: purified macrocycle, 2 nM thrombin, 50 μM Z-Gly-Gly-Arg-AMC, Ki from IC50 by Cheng-Prusoff
Procedure: Determination of the inhibitory constants of macrocycles
The IC50s of macrocycles were determined by measuring the residual activity of thrombin at different dilutions of macrocycle using a fluorogenic substrate. The reactions were performed in a volume of 150 µl in 96-well plates. A volume of 50 µl of 2-fold dilutions of macrocycle in assay buffer (10 mM Tris-Cl [pH 7.4], 150 mM NaCl, 10 mM MgCl2, 1 mM CaCl2, 0.1% w/v BSA, 0.01% v/v Triton-X100) were pipetted to the wells. A volume of 50 µl of thrombin (6 nM) in assay buffer was added to each well to reach a final concentration of 2 nM and was incubated for 15 min. A volume of 50 µl of the fluorogenic substrate Z-Gly-Gly-Arg-AMC (150 µM) in assay buffer containing 3% DMSO was added to reach a final substrate concentration of 50 µM and 1% DMSO. Fluorescence intensity was measured for 30 min using an Infinite M200Pro plate reader (Tecan; excitation at 368 nm, emission at 467 nm) with a read every minute.
Sigmoidal curves were fitted to the data using Prism 5 (GraphPad software) and the following dose- […]
wherein x is macrocycle concentration, y is % protease activity, and p is Hill slope. IC50 values were derived […]
The inhibitory constants (Ki) were calculated using the following equation of Cheng and Prusoff: […]
wherein IC50 is the functional strength of the inhibitor, [S]0 is the total substrate concentration, and Km is the Michaelis-Menten constant. The Km for thrombin and the substrate Z-Gly-Gly-Arg-AMC was determined to […]

Row | SMILES | Ki | fold improvement of Ki over parental macrocycle 7 (thrombin Ki relative to 7)
1 | N=C(N)NCCCC[C@@H]1NC(=O)C[C@H]2CCCN2C(=O)CN(Cc2ccco2)Cc2ccccc2CSC[C@@H](C(N)=O)NC1=O | 12.8 nM | 
2 | N=C(N)Nc1ccc(C[C@@H]2NC(=O)C[C@H]3CCCN3C(=O)CN(Cc3ccco3)Cc3ccccc3CSC[C@@H](C(N)=O)NC2=O)cc1 | 4.2 nM | 14 fold
